SMILES strings stand for the structures. “And” between values parts separate entries of the source, which are not always exact repeats. Equal values may be shown once. Only a part is listed here, and it is no random draw.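 For each line, cells grew in 96-well plates with the test compound present at a single concentration for 48 hours.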 The source made the active and inactive calls. Rule for the calls: active = growth percent below 10; inactive = the rest.

The subject of the assay is MDA-MB-468 breast. Briefly: NCI-60 one-dose screen, 48 h (100 = growth as untreated, 0 = no growth, -100 = all killed). The settings on record: 10 µM unless noted.
For `O=[As](O)(O)c1ccc(I)cc1`, the growth was inactive: 109%.

Take `CN(CCCl)CC1OC(O)C(O)C(O)C1O` (stereo not given): the growth is inactive: 101%.

For the compound `CC1CCNP(=O)(N(CCCl)CCCl)O1` (stereo not given), the growth is inactive: 107%.

On to `O=C(CCC(=O)Oc1c(Cl)cc([N+](=O)[O-])cc1[N+](=O)[O-])Oc1c(Cl)cc([N+](=O)[O-])cc1[N+](=O)[O-]`, for which the growth was inactive: 102%.

With `O=[As](O)(c1ccc(Cl)cc1)C1CCCCC1O` (stereo not given), the growth was inactive: 84.7%.

For the compound `O=C1NC(c2ccccc2)(c2ccccc2)C(=O)N1P(=O)(Oc1ccccc1)Oc1ccccc1`, the growth was inactive: 99.7%.

Consider `CN(C)C(=O)NP(=O)(N(C)C)N(C)C`, for which the growth is inactive: 100%.

Regarding `NP(=O)(N(CCCl)CCCl)N1CC1` (stereo not given), the growth was inactive: 108%.

On to `Cc1cccc(Nc2c([N+](=O)[O-])cc([N+](=O)[O-])cc2[N+](=O)[O-])c1`, for which the growth is inactive: 71.8%.

For the compound `O=S1(=O)CC(Sc2ccccc2)[C@@H](Cl)C1` (stereo not given in full), the growth was inactive: 103%.

For `COc1cc([N+](=O)[O-])c(Nc2ccc(Cl)cc2[N+](=O)[O-])c([N+](=O)[O-])c1`, the growth is inactive: 40.4%.

With `COC(=O)C(=[N+]=[N-])C(=O)c1cc([N+](=O)[O-])cc([N+](=O)[O-])c1`, the growth is inactive: 104%.

As to `CC(Cl)CN(CC(C)Cl)C(=O)OCC(N)C(=O)O` (stereo not given), the growth was inactive: 104% and inactive: 93.6%.

In the case of `NC1=NCC(Br)CS1` (stereo not given), the growth was inactive: 88.5%.

With `O=P(Nc1ncccn1)(N1CC1)N1CC1`, the growth is inactive: 93.3%.

On to `COc1ccc(C(=O)N(CCCl)CCCl)cc1OC`, for which the growth was inactive: 98.6%.

Regarding `O=C(Oc1c(Cl)cc(Cl)cc1[N+](=O)[O-])c1cc([N+](=O)[O-])cc([N+](=O)[O-])c1`, the growth was inactive: 107%.

For `Nc1cccc2c([As](=O)(O)O)cccc12`, the growth is inactive: 111%.

In the case of `CCCC1OP(=O)(Nc2ccccc2)OCC1CC` (stereo not given), the growth is inactive: 106%.

Take `C/C(N)=N/P(=O)(Oc1ccccc1)Oc1ccccc1`: the growth was inactive: 100%.

Consider `Cc1ccc(S(=O)(=O)n2cc(C3(O)CC(CC#N)OC3=O)c3cc(Br)ccc32)cc1` (stereo not given), for which the growth was inactive: 106%.

On to `O=C(OC1CN2CCC1CC2)c1ccccc1` (stereo not given), for which the growth was inactive: 100%.

In the case of `O=C(OCCNCCCl)c1ccccc1`, the growth was inactive: 101%.

Turning to `[N-]=[N+]=NC(=O)c1cccc([N+](=O)[O-])c1`, the growth was inactive: 37.8%.

Take `O=P(CCl)(Sc1ccc(Cl)cc1)N(CCCl)CCCl` (stereo not given): the growth was inactive: 90%.

Consider `CCP(Cl)(Cl)(Cl)CC`, for which the growth is inactive: 88.1%.

Turning to `CCOC(=O)CCNCCSP(=O)(O)O`, the growth was inactive: 99%.

For the compound `O=[N+]([O-])c1cc2cn[nH]c2cc1[N+](=O)[O-]`, the growth was inactive: 114%.

Consider `CN(CCCl)/N=N/c1nc2nc[nH]c(=O)c2[nH]1`, for which the growth was inactive: 105%.

In the case of `COc1cccc(OC)c1N(CCCl)CCCl`, the growth is inactive: 107%.

`O=C1OP(=O)(Cl)Oc2ccccc21` (stereo not given): the growth is inactive: 103%.

Turning to `O=C1OCCN1P(=O)(Cl)N1CCOC1=O`, the growth was inactive: 97.8%.

In the case of `COC(=O)N(C)[N+](=O)[O-]`, the growth is inactive: 102%.

For the compound `S=P1(S)SC(Nc2ccccc2)CN1c1ccccc1` (stereo not given), the growth is inactive: 110%.

On to `CCN(CCCl)CC1OC(O)C(O)C1O` (stereo not given), for which the growth is inactive: 103%.

(Values after PubChem BioAssay (NCI).)
